Results on one compound are retold here after PubChem BioAssay AID853 (Columbia University Molecular Screening Center, 2007).

The list shows a part of the results, in another mix than the full data. Some results for these compounds are left out of this collection, so the calls shown say nothing about other tests. Activity calls are given as the source filed them.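 How the source made its calls: active means inhibition of aggregate fluorescence above about 70%, also judged a hit by eye on the cell image (limit read from the data, passing the limit was not always enough); inconclusive means no rule stated for this call; inactive means not judged a hit on image review.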

This assay is described as follows: clearance of mutant huntingtin inclusions, primary screen, imaging, HeLa Exon1htt(103Q)mCFP, confocal imaging (AID 853).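 Further: cells exposed to compound for three days before fixation.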 To be noted: aggregate imaging, at 1.5 µM, hits give high values, zero = plate's median compound well.
Consider `CN(C)c1cccc(C(=O)NCC2(N(C)C)CCCCC2)c1`, for which the inhibition was inactive: 9.8%.
